Consider 1 molecule from patent publication EP0888303B1, “SYNTHETIC DERIVATIVES OF RAPAMYCIN AS MULTIMERIZING AGENTS FOR CHIMERIC PROTEINS WITH IMMUNOPHILIN-DERIVED DOMAINS” (ARIAD Pharmaceuticals, Inc, priority 1996, dated 1997).

The test addresses mutant (F36V) FKBP. Nature of the test: Competitive Binding FP Assay. The arrangement: species or system human. To be noted: Synthetic Multimerizers table; monomer value in brackets; mean of duplicates; normalized to FK506 = […] (substituted phenyl/lower aliphatic series: to AP1903 values); read-out: FKBPF36V binding affinity IC50.

As to `CCC(CC)C(=O)N1CCCC[C@H]1C(=O)O[C@H](CCc1ccc(OC)c(OC)c1)c1cccc(OCC(=O)NCCNC(=O)COc2cccc([C@@H](CCc3ccc(OC)c(OC)c3)OC(=O)[C@@H]3CCCCN3C(=O)C(CC)CC)c2)c1` [AP1891], the IC50 is 174 nM.
